The text below walks through data of ChEMBL document CHEMBL3994625, “Crystal structures, binding interactions, and ADME evaluation of brain penetrant N-substituted indazole-5-carboxamides as subnanomolar, selective monoamine oxidase B and dual MAO-A/B inhibitors” (Eur J Med Chem, 2017).

Protein sequences, listed by entry. Tags and fused reporters are not part of them.
UniProt P21397, whole entry: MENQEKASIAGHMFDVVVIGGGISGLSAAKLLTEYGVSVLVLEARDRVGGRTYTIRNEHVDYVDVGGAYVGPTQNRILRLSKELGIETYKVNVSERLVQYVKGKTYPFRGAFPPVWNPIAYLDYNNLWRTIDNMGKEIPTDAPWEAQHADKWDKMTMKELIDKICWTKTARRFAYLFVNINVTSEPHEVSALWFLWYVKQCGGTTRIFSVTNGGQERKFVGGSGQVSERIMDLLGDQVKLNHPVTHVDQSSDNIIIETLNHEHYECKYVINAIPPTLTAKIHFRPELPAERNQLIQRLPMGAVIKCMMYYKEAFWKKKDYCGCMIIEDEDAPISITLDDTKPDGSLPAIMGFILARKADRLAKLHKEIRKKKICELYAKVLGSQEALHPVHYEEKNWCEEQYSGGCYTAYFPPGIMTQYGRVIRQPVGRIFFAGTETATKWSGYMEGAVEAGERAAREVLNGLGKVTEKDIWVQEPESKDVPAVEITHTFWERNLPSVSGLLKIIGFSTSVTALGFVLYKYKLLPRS

Structures are written as SMILES.

In this assay the target is Amine oxidase [flavin-containing] A (Homo sapiens, UniProt P21397). The assay can be described thus: biochemical.

The compound `Cn1ncc2cc(C(=O)Nc3ccc(Cl)c(Cl)c3)ccc21` showed an IC50 of 0.389 nM.

One may read the IC50 as the concentration needed to halve the response being measured. Low readings indicate inhibition by little substance, high ones a need for much substance.
